This passage reports Kd results from patent US20190282656A1.

The target in test [1] is Cyclosporin A (soil fungi). Description: isothermal titration calorimetry at 25° C., dimerized CA192 titrated into CsA. Background: Isothermal titration calorimetry measures the heat released or taken up as one component is titrated into another.
In test [2] the target is Cyclosporin A (soil fungi). Description: isothermal titration calorimetry.

By Kd is commonly meant a measure of binding affinity in units of concentration. With “CA192 (Cyclophilin-A192; CypA-A192 fusion protein)”, in test [1], the Kd turned out to be 343 nM.

“CV96 (Cyclophilin-V96; CypA-V96 fusion protein)” showed a Kd in test [2] of 230 nM.
